scFv variants of Ab-14 (light chain) against a SARS-CoV-2 spike peptide

From the AlphaSeq antibody data of Li et al. 2023 (doi:10.1038/s41467-023-39022-2), copy in the FLAb collection.

Target: peptide PDVDLGDISGINAS, taken from heptad repeat 2 (HR2) of SARS-CoV-2 spike.

Parent: Ab-14, a human scFv built as VH, three GGGGS repeats, VL. Only the CDRs of the light chain vary.
VH: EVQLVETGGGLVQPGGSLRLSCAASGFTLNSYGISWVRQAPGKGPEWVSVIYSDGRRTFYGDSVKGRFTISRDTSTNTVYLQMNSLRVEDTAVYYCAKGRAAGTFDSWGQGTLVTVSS
VL: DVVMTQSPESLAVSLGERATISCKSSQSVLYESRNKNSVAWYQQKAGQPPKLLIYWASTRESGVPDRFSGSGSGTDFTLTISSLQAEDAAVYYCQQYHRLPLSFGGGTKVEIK

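The starting antibody came from a phage panning campaign against this peptide. This is the validation round: designs drawn from the data on random variants, tested in the same kind of assay. Several design methods are mixed in this list. Affinity was read by AlphaSeq, a pooled yeast mating assay with surface-displayed partners. Pairs that bind mate more often; barcode pairs of the diploids are counted by sequencing. A regression on co-assayed BCL2-family reference pairs converts the normalised counts of each replicate to an apparent Kd. Mating was done six times.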

Variants are written as CDR1, CDR2 and CDR3 of the light chain (limits as in the source). Parent: KSSQSVLYESRNKNSVA, WASTRES, QQYHRLPLS. The Kd shown is the geometric mean over detected replicates; a lower Kd is a better binder. Where no diploid with the target was found in any replicate, the entry reads "not detected": below detection, most likely a poor binder, though not proof of it. The parent sequence was in this pool as ten entries: three were never detected, three once, and four in most replicates, with averages from 2.2 nM to 240 nM.

CDR-L1 | CDR-L2 | CDR-L3 | apparent Kd | replicates with signal
KLSFSVLYESRNKNNVA | DASTRES | QQYHRLPLS | 290 pM | 6 of 6
KFQQSVLYESRNKNNVA | HASTRED | QQYHRLPLS | 680 pM | 6 of 6
KQKQSVLYESRNKNSVA | ESSTRES | QQYHRIPLS | 3.0 nM | 6 of 6
KLSGSNLYESRNKNSVA | NASTRES | QQYHRLPLS | 360 pM | 6 of 6
KVSQSVLFEPRNKNSVA | DASTRES | QQYHRLPLS | 850 pM | 6 of 6
KLEMDTLGLKGNQNSIA | AARESWE | QQYYMLPIS | 9.2 nM | 6 of 6
KSGKGVLYESRNKNSPA | GASTRES | QQYHREPLS | not detected | 0 of 6
ALQMERLGQKQKQNNIA | NQDMRTA | QQYYMLPLV | 1.1 nM | 6 of 6
KLSQSWIYESRNKNSVA | GASTRES | QQYHRLPLS | 580 pM | 6 of 6
KSSISYLYEKRNKNSVA | EASTRES | QQYHRLPLS | 4.7 nM | 6 of 6
KVDQEWHYGSRNKNSVA | NASQRER | QQYHRLPLS | 150 nM | 6 of 6
KMPQSWLYDSRNSNSVA | HASQRMS | QQYHRLPLS | 3.7 nM | 6 of 6
ILSQMLLTAGNKRNSVA | QANYRES | QQYHRLPLS | 62 nM | 5 of 6
IISGSMLMESRNKNSVA | NAEEREY | QHYDRLPLS | 57 nM | 6 of 6
KSSQSVLYESRMKNSVA | NASTREM | QQYHRLPLS | 2.4 nM | 6 of 6
KSGQGVLYESRNKNSVA | NASTRES | QQYHRLPLS | 8.7 nM | 6 of 6
MFSQLMEYGSRYKNSVA | QASVRED | QQYHWLPLS | not detected | 0 of 6
KSSQSMLYESRNKNVVA | WASTRES | QQYHRLPCS | not detected | 0 of 6
MMSQVTGLGQRTRNNVA | QTSTREP | QQYDRLPLI | 2.0 nM | 6 of 6
KLYDDAASRVQDAENIA | EKTESYQ | QQYHRLPLS | not detected | 0 of 6
IIDQIMYHGNKRANSIA | QASERVN | QQYHHLPLF | 7.5 nM | 6 of 6
KSSQSYMYESRNKNSVA | GASTRES | QQYHRLPLS | 1.3 nM | 6 of 6
KVYQSSLYESRNDNNVA | NASYRES | QQYHRLPLS | 1.1 nM | 6 of 6
HIGGVLEGNNVKGRSVA | HMNTRED | QQYDRLPLI | 5.0 nM | 6 of 6
TIGVTLMQGIRNRSNVA | EVSERLN | QQYDRLPLL | 930 pM | 6 of 6
MISQLMNMGQFAINSVA | QASIRNE | QQYDRLPLA | 7.1 nM | 6 of 6
KLANEMYQGSLVQANVA | EGKELWE | QQYGHLPLA | 95 nM | 5 of 6
KVSQSVCYEDRLKNSVA | NASDRMS | QQYHRLPLS | 2.3 nM | 6 of 6
ILSDTAVNQYDEADNIA | DKTETSV | QQYARLPLS | 52 nM | 6 of 6
TISTSMRYESTLKNAIA | NAQTRES | QQYHRLPIS | 2.8 nM | 6 of 6
MISDLTMYGMRNVNSVA | DLSTRGS | QQYDRLPLS | 3.6 nM | 6 of 6
RFDAAMPYANSNINSIA | EKAIQAD | QQYNRLPLS | 2.0 nM | 6 of 6
TLSQMWGMESHHKNNVA | QEETREK | QQYFRLPIS | 9.2 nM | 6 of 6
KLSMVTGHMSVSKNNVA | EMETREY | QQYDRLPLS | 19 nM | 6 of 6
KISYMGELFSTNHSSIA | QASTREQ | QQYHRLPLS | 19 nM | 6 of 6
KASQSVLYESRVKNSVA | SASMRES | QQYHRLPLS | not detected | 0 of 6
KSSQSVLYEKSNKNSVA | WASTRAS | QQYHRWPLT | 270 nM | 5 of 6
KLQQSVGMESRMVNNVA | AASTRED | QQYHRLPLS | 1.3 nM | 6 of 6
QLEWDALWGANYDYSVA | AQDVALP | QQYFRLPLI | 34 nM | 6 of 6
NLVEMEGTNQTAGGNIA | SVDQRMS | QQYQRLPLI | 36 nM | 6 of 6
KLNMLTGLETKMRNSVA | QMTTREE | QQYNHLPLS | 1.4 nM | 6 of 6
HSSPSVPYESRNKNSVA | DASTRES | QQYHRLPLS | 2.5 nM | 6 of 6
FLTYQQDQTGLQRNAIA | QVNLKEN | QQYGRLPFA | 34 nM | 1 of 6
KSSQSVEYESRNKNSVA | WARTRES | QQYHRLPLS | 9.4 nM | 1 of 6
HSQQSVPYESRNKNSVA | NASLRFS | QQYHRLPLS | 6.7 nM | 6 of 6
VYNLPFEGYQPKKYSIA | NAEIREY | QQYSRLPIL | 46 nM | 6 of 6
KSQWSVLYESNNKNSVA | HASTRED | QQYHRLPLS | 3.2 nM | 6 of 6
TVSQVHDMLSRNKNSVA | DMNTRES | QQYDRLPLS | 1.0 nM | 6 of 6
IVSQLMLWGWHQKNSIA | EAQTRLN | QQYDRLPLF | not detected | 0 of 6
YSSQSVLYVSRAKNSVA | AAYDRES | QQYHRLPLS | not detected | 0 of 6
KVEQSVMMGSRNKNSVA | HASVREQ | QQYHRLPLS | 2.3 nM | 6 of 6
KIGMTLNQLMHKKNNVA | DLVMRAN | QQYHRLPLS | 3.7 nM | 6 of 6
NITGMVNSKGTTTKNIA | EAEFRAG | QQYSRLPLS | 760 pM | 6 of 6
KFSQSVPYESRTKNSVA | EASTRES | QQYHRLPLS | 600 pM | 6 of 6
TISQVMNTLTREGNNVA | DLAEREH | QQYFRLPLS | 9.0 nM | 6 of 6
KLYQSVLYESRNKNSVA | NASLRES | QQYHRLPLS | 1.8 nM | 6 of 6
KLSWSVEYEDRLSNSVA | DASQREW | QQYHRLPLS | 2.6 nM | 6 of 6
MISQLYNMGTFAINSVA | QASERSE | QQYDRLPLI | 38 nM | 6 of 6
KLQQSKEYLSRWKNSVA | HASVRES | QQYHRLPLS | 210 nM | 3 of 6
KITQTMRFEQKNSNNIA | EVTTRSK | QQYVRLPLA | 670 pM | 6 of 6
KLPQSGLYESRNKNSVA | NASTREV | QQYHRLPLS | 310 pM | 6 of 6
KSSQSVLYTSRCKASVA | WASTRES | QQYHRLPLS | not detected | 0 of 6
KLEQSWDYESRNKNSVA | NASTRES | QQYHRLPLS | 1.1 nM | 6 of 6
KLTHNTFVLDRDKYSIA | DSERKME | QQYNQLPLT | 6.3 nM | 4 of 6
KINERMRSGENIQHSIA | NATEIVH | QQYHNLPLG | 49 nM | 6 of 6
KFYSAWSGEIQNNNNIA | SADTLNH | QQYWTLPLS | 15 nM | 4 of 6
KFSQMVNTMSVSKSAVA | EMSTRPE | QQYNRLPLA | 5.2 nM | 6 of 6
KVSISYLLESRNKNSVA | EANTRES | QQYHRLPLS | 790 pM | 6 of 6
KSSQSVDMESRNANSVA | DASTRES | QQYHRLPLS | 1.2 nM | 6 of 6
KLSQSVEQEERNKNSVA | HASQREV | QQYHRLCLS | not detected | 0 of 6
HVPNYPENFRSAKDNIA | DTSATTS | QQYDRLPLA | 3.3 nM | 6 of 6
KVSQSDLYESRNKNSVA | HASTREQ | QQYHRLPLS | 730 pM | 6 of 6
MISDLTMTGSRNKNSVA | DLSTRGS | QQYHRLPLS | 910 pM | 6 of 6
KVMQSHWQESRNKNSVA | HASLREV | QQYHRLPLS | 4.6 nM | 6 of 6
KLSQSDLYESRNKNSVA | EASTRED | QQYHRLPLS | 1.0 nM | 6 of 6
KLQQSWLYESRNKNSVA | NASTRYS | QQYHRLPLS | 1.3 nM | 6 of 6
ILSQMLLTAGNKHNSVA | QANNRED | QQYHRLPLS | 17 nM | 6 of 6
KLQQSQLYESRNKNSVA | QASTRES | QQYHRLPLS | 1.3 nM | 6 of 6
QLNVNRLMNYTMNNAIA | GKTLRVD | QQYARLPLS | 6.0 nM | 6 of 6

Excerpt, the final 12 entries:

CDR-L1	CDR-L2	CDR-L3	apparent Kd	replicates with signal
KVSISYLLESRNKNSVA	EANTRES	QQYHRLPLS	790 pM	6 of 6
KSSQSVDMESRNANSVA	DASTRES	QQYHRLPLS	1.2 nM	6 of 6
KLSQSVEQEERNKNSVA	HASQREV	QQYHRLCLS	not detected	0 of 6
HVPNYPENFRSAKDNIA	DTSATTS	QQYDRLPLA	3.3 nM	6 of 6
KVSQSDLYESRNKNSVA	HASTREQ	QQYHRLPLS	730 pM	6 of 6
MISDLTMTGSRNKNSVA	DLSTRGS	QQYHRLPLS	910 pM	6 of 6
KVMQSHWQESRNKNSVA	HASLREV	QQYHRLPLS	4.6 nM	6 of 6
KLSQSDLYESRNKNSVA	EASTRED	QQYHRLPLS	1.0 nM	6 of 6
KLQQSWLYESRNKNSVA	NASTRYS	QQYHRLPLS	1.3 nM	6 of 6
ILSQMLLTAGNKHNSVA	QANNRED	QQYHRLPLS	17 nM	6 of 6
KLQQSQLYESRNKNSVA	QASTRES	QQYHRLPLS	1.3 nM	6 of 6
QLNVNRLMNYTMNNAIA	GKTLRVD	QQYARLPLS	6.0 nM	6 of 6

Values of this round are not directly comparable with the first-round values of the same sequences. The authors' rule: three or more of the six replicates give a measured affinity, fewer mean a poor binder. Three control strains display no target. For all light chain designs, 4% of the pairings with them gave a signal, with a median of 430 nM and one signal in twenty below 38 nM, so weak values seen in few replicates may be background.